For the experiment, the target named is purified human Factor XIa (Homo sapiens (Human), UniProt P03951). Nature of the experiment: Factor XIa enzyme inhibition assay (chromogenic substrate S-2366). The following applies: read-out: Factor XIa Ki, substrate S-2366, pH 7.4.

Amino acid sequences for entries named in this document (tags omitted). Residues count along the entry.
UniProt P03951, 388-625 limits assumed: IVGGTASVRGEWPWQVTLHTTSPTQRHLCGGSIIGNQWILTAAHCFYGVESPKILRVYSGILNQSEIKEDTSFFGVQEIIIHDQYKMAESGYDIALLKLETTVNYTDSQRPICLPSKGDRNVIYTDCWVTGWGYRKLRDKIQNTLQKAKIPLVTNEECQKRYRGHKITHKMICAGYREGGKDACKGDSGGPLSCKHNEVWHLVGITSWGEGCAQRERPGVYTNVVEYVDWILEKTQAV
UniProt P03951, 19-387 partner limits assumed: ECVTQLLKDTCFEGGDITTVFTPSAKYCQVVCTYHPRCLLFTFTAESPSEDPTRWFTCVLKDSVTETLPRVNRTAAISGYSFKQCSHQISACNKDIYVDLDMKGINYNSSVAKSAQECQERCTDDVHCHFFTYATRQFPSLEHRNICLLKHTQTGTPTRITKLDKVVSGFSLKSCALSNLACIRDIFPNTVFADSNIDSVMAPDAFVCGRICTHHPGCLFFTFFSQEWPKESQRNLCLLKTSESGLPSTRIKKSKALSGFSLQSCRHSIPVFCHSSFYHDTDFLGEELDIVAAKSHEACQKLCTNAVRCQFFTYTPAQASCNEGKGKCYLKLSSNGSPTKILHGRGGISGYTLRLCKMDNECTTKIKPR

Molecules are shown by their SMILES.

The Ki is a measure of affinity in units of concentration, obtained from inhibition or displacement.

Regarding `COC(=O)Nc1ccc2c(c1)NC(=O)C(C)CCC[C@H](NC(=O)c1c(F)cc3c(cnn3C)c1F)c1nc-2c(Cl)[nH]1` (stereo partly shown), the Ki was found to be 6.6 nM.
